Reference: patent US20170197977A9, “COMPOSITIONS AND METHODS FOR TREATING NEURODEGENERATIVE DISEASE” (COGNITION THERAPEUTICS, INC., priority 2011, published 2017)

Key:
[1] = test system: Abeta oligomer-induced membrane trafficking deficits; assay: Membrane trafficking/exocytosis (MTT) assay in mature primary hippocampal neurons; type: cell-based, rat; conditions: 20 uM versus 0 uM of enantiomer
Excerpt: The present exocytosis assay was adapted for use with mature primary neuronal cultures grown for 3 weeks in vitro. See WO/2011/106785, incorporated by reference in its entirety. Abeta oligomers cause a dose-dependent decrease in the amount of intracellular vesicles (puncta) filled with reduced purple formazan as measured via image processing using a Cellomics VTI automated microscopy system. Compare for example FIG. 1A (a photomicrograph for a cultured neuronal cell exposed to vehicle alone showing vesicles filled with formazan) with FIG. 1B (a photomicrograph of a neuronal cell exposed to vehicle plus Abeta oligomer showing considerably fewer vesicles filled with formazan and instead exocytosed formazan which when encountering the extracellular environment precipitates into crystals). Increasing the amount of Abeta oligomers eventually results in overt toxicity. Thus, the concentration of neuroactive Abeta oligomers used in the assay is much lower than that causing cell death. The inventors confirmed that the assay is operative by showing that the effects of Abeta oligomer are blocked upon addition of anti-Abeta antibody but antibody alone has no effect on its own (data not shown). […]
[…] Exocytosis was assessed by automated microscopy and image processing to quantify the amount of endocytosed and exocytosed formazan. […]

[2] = test system: Abeta oligomer-induced memory deficits in wt C57BL/6 mice; assay: Contextual fear conditioning after intrahippocampal Abeta oligomer injection; type: in vivo, mouse; conditions: Table 10A
Experimental: Abeta oligomers (single 200 nanoMolar intrahippocampal injection) produced significant deficits in memory formation in 3-4 month old male wt C57BL/6 mice (N=16) compared to vehicle (N=18).
Several pharmaceutical companies use this same model in their discovery efforts. Contextual fear conditioning is an accepted model of associative memory formation which correlates to human cognitive function and specifically the creation of new (Delgado '06). Abeta oligomers are injected into the hippocampus of wild-type animals immediately before conditioning training and memory is assessed via freezing behavior after 24 hours. Details are provided in Example 9. […] This model system was chosen because intrahippocampal administration of oligomers allows rapid comparative assessment of compound activity and off-target toxicity. The results are shown graphically in FIG. 4.
Compound II was tested in an animal model of a memory-dependent behavioral task known as fear conditioning. The study protocol was designed based on published protocols (See e.g. Puzzo D, Privitera L, Leznik E, Fà M, Staniszewski A, Palmeri A, Arancio O. Picomolar amyloid-beta positively modulates synaptic plasticity and memory in hippocampus. J. Neurosci. 2008 Dec. 31; 28(53):14537-45.). The formation of contextual memories is dependent upon the integrity of medial temporal lobe structures such as the hippocampus. […]

SMILES	Curve shift (fold) [1] [fold]	Behavioral efficiency [2]
COc1cc(CCC(C)NCc2ccc(C(F)(F)F)cc2)ccc1O (single isomer, unassigned; (+)) [(+) enantiomer of Cpd II]	2.86	–
COc1cc(CCC(C)NCc2ccc(C(F)(F)F)cc2)ccc1O (single isomer, unassigned; (-)) [(−) enantiomer of Cpd II]	1.22	–
COc1cc(CCC(C)NCc2ccc(C(F)(F)F)cc2)ccc1O (stereo not drawn) [Compound II]	–	Yes
